Where two headings read alike, the source gives them in different places.
Target: T1, Ornithine decarboxylase (ODC) (Rattus norvegicus, UniProt P09057)
T1 construct: is prepared from the livers of rats which have been injected with thioacetamide; from tissue; host or cells: rat liver (thioacetamide-induced)
T1 sequence (P09057 1-461): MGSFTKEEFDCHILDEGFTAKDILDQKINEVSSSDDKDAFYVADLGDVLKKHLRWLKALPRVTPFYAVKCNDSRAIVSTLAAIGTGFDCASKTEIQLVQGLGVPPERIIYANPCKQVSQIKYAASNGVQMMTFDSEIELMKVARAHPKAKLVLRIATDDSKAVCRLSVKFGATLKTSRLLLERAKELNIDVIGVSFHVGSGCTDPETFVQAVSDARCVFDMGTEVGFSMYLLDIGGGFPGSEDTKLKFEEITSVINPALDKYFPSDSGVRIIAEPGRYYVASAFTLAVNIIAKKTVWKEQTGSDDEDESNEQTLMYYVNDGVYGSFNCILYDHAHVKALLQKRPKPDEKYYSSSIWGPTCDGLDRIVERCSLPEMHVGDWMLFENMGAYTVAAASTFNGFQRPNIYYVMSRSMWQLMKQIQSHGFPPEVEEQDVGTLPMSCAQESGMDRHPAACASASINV
Assay: In vitro time-dependent inhibition of ornithine decarboxylase (14CO2 release from DL-[1-14C]ornithine; Kitz and Wilson analysis)
Format: biochemical, rats
Experimental: The stock solution of ODC is composed of proteins (16 mg/mL), sodium phosphate buffer (30 mM, pH 7.1), dithiothreitol (5 mM) and pyridoxal phosphate (0.1 mM). The specific activity of this stock solution is 0.12 nmol of CO2/min per mg of protein. For a typical experiment 320 µl of this stock solution is mixed at time 0 with 80 µl of a solution of the inhibitor in water and incubated at 37°. At different times 50 pl aliquots are transferred into a 1 mL assay medium containing sodium phosphate (30 mM, pH 7.1), dithiothreitol (5 mM), pyridoxal phosphate (0.1 mM), L-ornithine (0.081 pmol), and DL-[1-^14C] ornithine (0.043 pmol, 58 Ci/mol, Amersham) in a closed vessel in which a filter paper moistered with 50 µl hyamine hydroxide (1 M) is fitted. The reaction is allowed to proceed for 60 min at 37°C and then terminated by addition of 0.5 ml of 40% trichloroacetic acid. After an additional 30 min, the CO2 absorbed on the filter paper is counted in a standard scintillation cocktail.

SMILES: C=C(CN)CC(N)CF (stereo not drawn) [B, 1-fluoro-2,5-diamino-4-methylene-pentane]
- Ki: 13 µM

SMILES: NCC(=O)CC(N)CF (stereo not drawn) [C, 1-fluoro-2,5-diamino-4-oxo-pentane]
- Ki (apparent dissociation constant, ODC from livers of thioacetamide-treated rats, incubated at 37°, calculated by method of Kitz and Wilson, read-out: ODC KI): 7.5 µM

SMILES: C=C(CN)CC(N)C(F)F (stereo not drawn) [E, 1,1-difluoro-2,5-diamino-4-methylene-pentane]
- Ki: 60 µM

— patent EP0072761B1, “Decarboxylase-inhibiting fluorinated alkane diamine derivatives” (MERRELL TORAUDE ET COMPAGNIE, priority 1981, dated 1983)
